Experiment: Thermodynamic solubility in water
Format: physicochemical

aq. sol. of HCl salt (solubility of HCl salt): 26 µg/mL
aq. sol. (water, stirred 18 hours): 2.1 µg/mL
Compound: Cl.Nc1ncc(-c2cnc3ccc(C(=O)N4CCCCC4)cc3n2)cc1Cl [Compound 40, (3-(6-Amino-5-chloropyridin-3-yl)quinoxalin-6-yl)(piperidin-1-yl)methanone]
